From US20220031713A1, “METHODS OF TREATING MYELOPROLIFERATIVE DISORDERS” (Impact Biomedicines, Inc., priority 2018, published 2022) come the findings set out here.

Amino acid sequences for entries named in this document (tags omitted). A change or cut given only in a name is not applied to a line headed by its entry.
UniProt O60674: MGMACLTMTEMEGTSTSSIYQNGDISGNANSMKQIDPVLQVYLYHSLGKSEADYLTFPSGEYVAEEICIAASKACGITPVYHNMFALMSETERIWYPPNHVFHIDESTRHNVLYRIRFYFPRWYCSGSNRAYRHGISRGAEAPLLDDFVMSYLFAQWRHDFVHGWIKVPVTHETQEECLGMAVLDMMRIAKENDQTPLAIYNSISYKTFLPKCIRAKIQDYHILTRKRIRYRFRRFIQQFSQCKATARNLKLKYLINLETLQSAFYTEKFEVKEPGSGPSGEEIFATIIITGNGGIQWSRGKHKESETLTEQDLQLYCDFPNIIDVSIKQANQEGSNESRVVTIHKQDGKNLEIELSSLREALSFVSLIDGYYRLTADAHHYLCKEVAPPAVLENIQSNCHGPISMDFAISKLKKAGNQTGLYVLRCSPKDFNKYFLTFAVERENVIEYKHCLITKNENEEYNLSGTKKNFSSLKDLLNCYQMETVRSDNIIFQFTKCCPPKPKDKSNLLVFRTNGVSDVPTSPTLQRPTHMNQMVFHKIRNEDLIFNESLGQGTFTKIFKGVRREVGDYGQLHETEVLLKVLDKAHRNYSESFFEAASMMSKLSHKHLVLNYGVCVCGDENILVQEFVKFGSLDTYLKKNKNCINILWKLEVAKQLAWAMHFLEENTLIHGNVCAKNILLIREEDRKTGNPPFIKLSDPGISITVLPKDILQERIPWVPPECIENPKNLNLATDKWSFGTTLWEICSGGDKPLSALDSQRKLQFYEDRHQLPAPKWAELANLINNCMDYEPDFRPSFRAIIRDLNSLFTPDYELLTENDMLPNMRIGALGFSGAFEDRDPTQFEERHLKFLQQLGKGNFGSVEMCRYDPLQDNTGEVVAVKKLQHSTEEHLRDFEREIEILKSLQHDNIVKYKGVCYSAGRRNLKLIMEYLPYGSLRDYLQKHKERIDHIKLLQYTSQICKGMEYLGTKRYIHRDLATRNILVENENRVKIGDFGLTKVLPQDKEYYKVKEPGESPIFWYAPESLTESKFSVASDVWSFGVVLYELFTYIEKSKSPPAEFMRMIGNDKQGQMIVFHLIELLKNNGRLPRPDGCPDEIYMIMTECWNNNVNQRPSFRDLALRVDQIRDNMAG

This experiment has as its target JAK2 (Homo sapiens, UniProt O60674). Kind of experiment: JAK2 kinase activity inhibition. The class given is biochemical.

Take `Cc1cnc(Nc2ccc(OCCN3CCCC3)cc2)nc1Nc1cccc(S(=O)(=O)NC(C)(C)C)c1` [Compound I, fedratinib]: the “inhibition of JAK2 kinase activity” value was “potent and selective inhibitor”.
